Reference: paper PMC6953423 (Journal of medicinal chemistry, 2019)

The chains behind the UniProt entries cited, without tags or fusion partners.
UniProt P47746, whole entry: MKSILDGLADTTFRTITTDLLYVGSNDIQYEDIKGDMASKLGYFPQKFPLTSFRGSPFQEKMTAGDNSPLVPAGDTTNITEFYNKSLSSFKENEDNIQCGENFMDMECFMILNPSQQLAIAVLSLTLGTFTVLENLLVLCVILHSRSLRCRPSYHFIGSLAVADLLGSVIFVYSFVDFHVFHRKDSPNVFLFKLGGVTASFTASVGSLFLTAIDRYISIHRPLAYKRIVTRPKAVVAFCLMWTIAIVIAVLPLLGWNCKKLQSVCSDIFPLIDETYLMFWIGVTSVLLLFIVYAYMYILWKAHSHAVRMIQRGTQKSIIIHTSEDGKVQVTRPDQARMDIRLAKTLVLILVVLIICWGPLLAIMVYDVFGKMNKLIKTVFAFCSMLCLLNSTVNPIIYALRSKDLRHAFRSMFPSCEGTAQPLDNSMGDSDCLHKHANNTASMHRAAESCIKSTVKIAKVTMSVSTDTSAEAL

Target: mouse CB1 (Mus musculus, UniProt P47746)
Test: mCB1 [35S]GTPγS binding assay in mouse cerebellar membranes
Conditions: IC50 at 100 nM vs 1 μM CP55,940

Which “IC50 Fold Change” value does the source give for `O=C(Nc1ccc(Cl)cc1)Nc1ccc(-c2ccc(F)cc2F)s1` [Compound 20, 1‐(4‐Chlorophenyl)‐3‐[5‐(2,4‐difluorophenyl)thiophen‐2‐yl]urea] here?
Its value is 3.
